Results from US9284423B2, “Crosslinkable composition crosslinkable by real michael addition (RMA) reaction” (NUPLEX RESINS B.V., priority 2011, dated 2016).

Assay: Determination of Michael addition reactivity (Example 12): loss of X-H component in butyl acrylate/methanol at room temperature, by back-titration (GC for dimethylmalonate)
Assay type: physicochemical
Details: with strong base, same method as for succinimide
Procedure: 5 grams of succinimide (50.5 mmole) were dissolved in a mixture of 42 grams of butyl acrylate and 42 grams of methanol, and maintained at room temperature as such, or after adding a strong base (9.82 grams of a 1.12 meq/g solution of tetrabutylammonium hydroxide in methanol, 11 meq). Subsequently, the concentration of succinimide is determined as a function of time by taking samples, neutralizing with a known excess of HCl in water, and backtitration with a KOH solution. […] With the base added, the succinimide concentration can be seen to decrease with time, as illustrated in the table F below. Succinimide concentration is expressed as % relative to the theoretical level based on used amounts.
Using the same method, also the reactivity for various other components was determined; as a reference a similar set-up was used for the reactivity of dimethylmalonate under these conditions (only in this case, the remaining DMM level was determined with GC). Table G lists the results of the relative Michael addition reactivities, expressed as a number indicating the initial increase in % conversion, per minute, under these conditions.

## NS(=O)(=O)c1ccccc1 [benzenesulfonamide]
  Relative conversion rates (relative Michael addition reactivity: initial increase in % conversion, per minute): 0.11 % conversion, per minute
